# Test results from PubChem BioAssay AID602179 (National Center for Advancing Translational Sciences (NCATS), 2012).
# The chains behind the UniProt entries cited, without tags or fusion partners.
# UniProt O75874, whole entry R132H: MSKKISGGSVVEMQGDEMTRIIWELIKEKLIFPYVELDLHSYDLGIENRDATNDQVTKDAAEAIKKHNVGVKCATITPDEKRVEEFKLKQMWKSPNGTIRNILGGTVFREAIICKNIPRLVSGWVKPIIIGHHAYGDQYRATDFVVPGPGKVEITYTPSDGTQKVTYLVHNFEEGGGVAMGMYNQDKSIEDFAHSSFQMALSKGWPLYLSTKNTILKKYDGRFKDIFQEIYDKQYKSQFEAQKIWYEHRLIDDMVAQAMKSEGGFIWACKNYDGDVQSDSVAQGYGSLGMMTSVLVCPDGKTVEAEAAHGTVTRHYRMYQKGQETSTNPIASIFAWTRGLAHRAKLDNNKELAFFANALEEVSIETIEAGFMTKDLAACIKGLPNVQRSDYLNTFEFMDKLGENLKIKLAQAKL
# Where “and” joins values, the source holds several entries; their conditions need not be identical. Identical values can stand only once. Only a part is listed here, and it is no random draw. Some of these compounds have results that are not shown, active ones among them. Calls of active or inactive are those of the source. Calls come from the whole dose curve; as a rule, active = well fitted inhibition curve with a large enough effect; inconclusive = small, poorly fitted or top-dose-only effect; inactive = no such curve, though single readings can be large or run the other way.
# Target: Isocitrate dehydrogenase [NADP] cytoplasmic (Homo sapiens) (UniProt O75874)
# Assay: qHTS for Inhibitors of mutant isocitrate dehydrogenase 1 (IDH1): qHTS; note: nearly all actives have a fitted effect of over 65% in size
# Conditions: IDH1-R132H enzyme, NADPH consumption, diaphorase/resazurin fluorescence; at 76.6 µM (top of the series)
# Text: Unbiased genomic sequencing for 22 glioma genomes found recurrent mutation of isocitrate dehydrogenase 1 (IDH1) on chromosome 2q33-a gene encoding the cytosolic isoform of IIDH1associated with the tricarboxylic acid cycle (TCA) that catalyzes the oxidative decarboxylation of isocitrate, yielding alpha-ketoglutarate and CO2 via NADP+ to NADPH conversion. Subsequent studies confirmed the recurrent IDH mutations in up to 70% of secondary gliomas and in 10% of AML cases. […] This in effect defines IDH1 as an oncogene, and provides an extraordinary opportunity to discover chemical probes against mutant IDH1 that may translate into much needed new therapies for glioma and AML patients. […] NIH Chemical Genomics Center [NCGC] NIH Molecular Libraries Probe Centers Network [MLPCN] MLPCN Grant: DA032129 Assay Submitter (PI): Lenny Dang, Agios Pharmaceuticals
# IDH1-R132H (0.5 ug/mL) was dispensed into black, solid-bottom 1536-well plates at 3 uL/well in 20 mM Tris-HCl (pH 7.5), 150 mM NaCl, 10 mM MgCl2, 4 mM beta-ME, and 0.05% protease-free BSA. Then, 23 nL of compounds or DMSO were delivered to each well using a pin tool. A pre-read was run on the Viewlux to identify fluorescent compounds (540 nm excitation filter, 598 nm emission filter, bodipy mirror and 2 second exposure). After 30 minutes of incubation with compound, 3 uL of substrate mix were dispensed (0.016 mM NADPH, 2 mM alpha-KG, 20 mM Tris-HCl (pH 7.5), 150 mM NaCl, 10 mM MgCl2, and 0.05% protease-free BSA). Plates were spun for 1 min at 1000xg and incubated at room temperature for 80 min. Then 1.5 uL of each detection reagent component for the coupling system were added (0.12 mg/mL diaphorase and 0.072 mM resazurin, each in 20 mM Tris-HCl (pH 7.5), 150 mM NaCl, 10 mM MgCl2, and 0.05% protease-free BSA ) The protein, substrate and two detection components were maintained at 4 °C throughout the screen. Additionally, the substrate and resazurin reagents were protected from light. The plates were measured on an Envision plate reader for fluorescence signal using a 540 nm excitation filter and 590 nm emission filter with 10 flashes. 1x and 0x (no-enzyme) IDH1-R132H enzyme control were used to normalize %Activity of identified inhibitors; 0x enzyme values corresponded to 100% Activity (full inhibition), while 1x IDH1-R132H enzyme values were used to normalize 0%Activity (no inhibition). Concentration-response curves were fitted to the signals arising from the resulting fluorescence. The concentration-effect curves were then classified based on curve quality (r2), response magnitude and degree of measured activity, and compounds were subsequently categorized based on their curve class. […] Keywords: isocitrate dehydrogenase, IDH1, IDH1-R132H, MLSMR, MLPCN, NIH Roadmap, qHTS, NCGC
row,SMILES,"activity change, negative = inhibition"
1,CN(C)C1(CNC(=O)c2ccc(Br)cc2)CCCCC1,inactive: 2.83%
2,COc1cc(C(=O)NCC2(N(C)C)CCCCC2)c([N+](=O)[O-])cc1OC,inactive: -7.09%
3,COc1ccc(C(=O)NCC2(N(C)C)CCCCC2)cc1Cl,inactive: -7.53%
4,COc1ccc(Cl)cc1C(=O)NCC1(N(C)C)CCCCC1,inactive: 2.36%
5,COc1cccc(C(=O)NCC2(N3CCCCC3)CCCCC2)c1,inactive: 17.9%
6,O=C(NCC1(N2CCCCC2)CCCCC1)c1cccc(Cl)c1,inactive: -5.4%
7,O=C(OC1CN2CCC1CC2)C(CO)(c1ccccc1)c1ccccc1 (stereo unspecified),inactive: -0.976%
8,COc1cccc(C(=O)NCC2(N3CCOCC3)CCCCC2)c1,inactive: -3.56%
9,CC(C)COc1ccc(C(=O)NCC2(N(C)C)CCCCC2)cc1,inactive: 4.25%
10,COc1ccc(Br)c(C(=O)NCC2(N3CCCCC3)CCCCC2)c1,inactive: -10.5%
11,COc1cc(C(=O)NCC2(N(C)C)CCCCC2)cc(OC)c1OC,inactive: 14.8%
12,Cc1cccc(C(=O)NCC2(N(C)C)CCCCC2)c1,inactive: 4.49%
13,C=C(C)C#CC(O)(C(=O)OC1CCN(C)CC1)c1ccccc1 (stereo unspecified),inactive: 10.2%
14,CN(C)c1cccc(C(=O)NCC2(N(C)C)CCCCC2)c1,inactive: 6.71%
15,O=C(OCCN1CCCC1)C(O)(c1ccccc1)c1ccccc1,inactive: 0.178%
16,CC(C)Oc1ccc(C(=O)NCC2(N(C)C)CCCCC2)cc1,inactive: 1.76% and inactive: 1.8%
17,O=C(NCC1(N2CCCCC2)CCCCC1)c1cc([N+](=O)[O-])ccc1Cl,inactive: -2.9%
18,CN1[C@@H]2CC[C@H]1CC(OC(=O)C(O)(c1ccccc1)c1ccccc1)C2 (stereo partly specified),inactive: 0.118%

row,SMILES,"activity change, negative = inhibition"
1,CC(C)N1C(=O)CC2(CCN(CCOC(=O)C(O)(c3ccccc3)c3ccccc3)CC2)C1=O,inactive: 0.51%
2,COc1cc(SC)ccc1C(=O)NCC1(N(C)C)CCCCC1,inactive: -7.44%
3,CN(C)C1(CNC(=O)c2cccc(Cl)c2)CCCCC1,inactive: -7.72%
4,CCN(CC)CC(C)C(C)OC(=O)C(O)(c1ccccc1)c1ccccc1 (stereo unspecified),inactive: -2.94%
5,CN(C)C1(CNC(=O)c2ccccc2F)CCCCC1,inactive: 2.19%
6,Cc1ccc(C(=O)NCC2(N3CCCCC3)CCCCC2)cc1,inactive: -2.75%
7,CN(C)C1CCCC1OC(=O)C(O)(c1ccccc1)c1ccccc1 (stereo unspecified),inactive: 4.55%
8,CN(C)c1ccc(C(=O)NCC2(N(C)C)CCCCC2)cc1,inactive: -2.79%
9,CN(C)C1(CNC(=O)c2ccccc2[N+](=O)[O-])CCCCC1,inactive: -17.2%
10,Cc1ccccc1C(=O)NCC1(N2CCCCC2)CCCCC1,inactive: -1.89%
11,CCCCOc1ccccc1C(=O)NCC1(N(C)C)CCCCC1,inactive: 6.85%
12,O=C(NCC1(N2CCCCC2)CCCCC1)c1cc(F)c(F)cc1Cl,inactive: -0.14%
13,C=CCN1CCN(CCOC(=O)C(O)(c2ccccc2)c2ccccc2)CC1,inactive: 15.8%
14,O=C(NCC1(N2CCCCC2)CCCCC1)c1cccc(Br)c1,inactive: -24.1%
15,Cc1cc(C(=O)NCC2(N3CCCCC3)CCCCC2)ccc1[N+](=O)[O-],inactive: -7.24%
16,CCN1CCCC(OC(=O)C2(O)c3ccccc3C=Cc3ccccc32)C1 (stereo unspecified),inactive: 2.8%
17,CCOc1cccc(C(=O)NCC2(N(C)C)CCCCC2)c1,inactive: -7.24%
18,COc1ccc(C(=O)NCC2(N(C)C)CCCCC2)cc1,inactive: 0.731%
